Residue numbers refer to the chain shown, from its start.
What was measured:
[1] = Stability of compounds in human liver microsomes; conditions: no co-factor (no NADPH)
[2] = target: T1, CYP1B1 (Homo sapiens, UniProt Q16678); test: In cell activity assay for CYP1B1 (7-ethoxyresorufin conversion, HEK293 T-Rex cells)
T1 sequence (Q16678 1-543): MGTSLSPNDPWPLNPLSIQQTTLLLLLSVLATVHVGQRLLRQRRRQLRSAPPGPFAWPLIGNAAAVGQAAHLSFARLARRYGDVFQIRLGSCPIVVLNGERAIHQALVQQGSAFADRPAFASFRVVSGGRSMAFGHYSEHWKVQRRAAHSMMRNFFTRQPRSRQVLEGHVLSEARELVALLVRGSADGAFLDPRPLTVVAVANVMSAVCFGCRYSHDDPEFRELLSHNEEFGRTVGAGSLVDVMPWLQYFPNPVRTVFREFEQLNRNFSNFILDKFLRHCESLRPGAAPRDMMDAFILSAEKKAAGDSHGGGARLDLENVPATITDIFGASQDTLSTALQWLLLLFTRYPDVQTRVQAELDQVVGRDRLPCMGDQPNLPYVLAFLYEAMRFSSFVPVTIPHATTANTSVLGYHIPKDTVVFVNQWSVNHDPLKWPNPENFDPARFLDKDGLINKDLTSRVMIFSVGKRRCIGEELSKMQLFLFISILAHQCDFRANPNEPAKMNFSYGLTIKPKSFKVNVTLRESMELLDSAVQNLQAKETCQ

[3] = target: T2, CYP1B1 S269A (Homo sapiens, UniProt Q16678, S269A); test: In cell CYP1B1 activity assay, S269A variant
T2 sequence (Q16678 1-543 S269A): T1 sequence (Q16678 1-543) with S269A

SMILES	Remaining, % (NCF=60min) [1] [%]	IC50 [2] [nM]	IC50 [3] [nM]
O=C(O)Cc1ccccc1Nc1c(Cl)cccc1Cl [Diclofenac, reference compound]	86.4		
O=c1cc(-c2ccccc2)oc2c1ccc1ccccc12 [ANF, α-naphthoflavone, reference compound]		140	140

From paper PMC9233675, “Ru(II) photocages enable precise control over enzyme activity with red light” (Nature Communications, 2022)
